# Results: patent publication US10209240B2, “Predicting human developmental toxicity of pharmaceuticals using human stem-like cells and metabolomic ratios” (STEMINA BIOMARKER DISCOVERY, INC., priority 2012, dated 2019)
# How the values were obtained:
# WA09 hES cells [1] = test system: WA09 hES cells
# WA09 hES cells [2] = test system: WA09 hES cells; remark: listed apart in the source
# Humans = details: training and test set; cited from earlier work
# WA09 hES cells [3] = assay: Phase 2 targeted biomarker assay, ornithine/cystine ratio, 9-point dose response; details: training set; teratogenicity potential scored against therapeutic Cmax
substance,measurement,setting,value
Cytosine Arabinoside,Targeted Biomarker Assay prediction,WA09 hES cells [1],TER
same,Viability Prediction,WA09 hES cells [2],TER
same,Cytotoxicity at the Cmax exposure level,WA09 hES cells [2]; human,greater than 30%
same,Humans (known human developmental toxicity),Humans,TER
same,O/C Ratio Prediction,WA09 hES cells [3],TER
